Values of other authors as cited in PMC9867837 (Cancer letters, 2022).

Sequences of proteins named here, by UniProt entry; tags and fusion partners are left off.
UniProt P40763, whole entry: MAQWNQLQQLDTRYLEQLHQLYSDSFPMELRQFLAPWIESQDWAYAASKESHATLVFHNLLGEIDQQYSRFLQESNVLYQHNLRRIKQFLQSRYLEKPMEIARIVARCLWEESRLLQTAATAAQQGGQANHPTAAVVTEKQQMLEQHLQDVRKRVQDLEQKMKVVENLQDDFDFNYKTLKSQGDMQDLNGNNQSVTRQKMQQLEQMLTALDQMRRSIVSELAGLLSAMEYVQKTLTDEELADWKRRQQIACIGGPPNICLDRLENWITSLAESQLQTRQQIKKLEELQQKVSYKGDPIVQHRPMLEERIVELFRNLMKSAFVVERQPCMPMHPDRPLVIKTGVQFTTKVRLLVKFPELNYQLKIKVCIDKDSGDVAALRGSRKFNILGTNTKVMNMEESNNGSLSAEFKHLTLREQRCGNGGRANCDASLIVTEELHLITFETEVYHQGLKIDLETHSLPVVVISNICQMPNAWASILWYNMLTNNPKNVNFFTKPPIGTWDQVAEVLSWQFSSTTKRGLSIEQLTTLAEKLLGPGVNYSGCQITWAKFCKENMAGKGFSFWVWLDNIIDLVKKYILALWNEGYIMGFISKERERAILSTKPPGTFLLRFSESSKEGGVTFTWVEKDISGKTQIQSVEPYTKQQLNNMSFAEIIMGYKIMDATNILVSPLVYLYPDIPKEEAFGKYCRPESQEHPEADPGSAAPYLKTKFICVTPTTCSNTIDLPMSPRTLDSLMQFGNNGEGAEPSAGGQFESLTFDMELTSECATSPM

Biological target: SH2 domain of pure recombinant Stat3 (Homo sapiens, UniProt P40763)
Design: method as in PMID 12639546
Details: read-out: KD for binding to the SH2 domain; cited from earlier work

GpYLPQTV-NH2 (GYLPQTV; phospho-Tyr at position 2 of the peptide; C-terminal amide (NH2))
Kd: 0.15 µM
